Where a name gives a salt, the structure may show the parent alone. Read-outs that look alike come from different tables or passages of the source.
Experiments:
integrin α4β7 = integrin α4β7 (Homo sapiens, UniProt P13612+P26010); experiment: Integrin α4β7 cell adhesion assay (RPMI8866 cells on MAdCAM-1)
integrin α4β1 = integrin α4β1 (Homo sapiens, UniProt P05556+P13612); experiment: Integrin α4β1-mediated cell adhesion assay (Jurkat cells on VCAM); assay type: cell-based; conditions: tested form: TFA; for IC50: read-out: Jurkat (α4β1)/VCAM-1 IC50, Jurkat cells, VCAM coated plate; for α4β1/α4β7: selectivity ratio of Jurkat (α4β1)/VCAM-1 IC50 to RPMI-8866 (α4β7)/MadCAM-1 IC50
[1] = read-out: RPMI-8866 (α4β7)/MadCAM-1 IC50, MAdCAM-1 coated plate, numeric value or bound, tested form: TFA
[2] = read-out: RPMI-8866 (α4β7)/MadCAM-1 IC50, MAdCAM-1 coated plate, reported as class symbol, tested form: TFA

By UniProt entry, the sequences of proteins in these tests, tags left out. Residues count along the entry.
UniProt P13612, whole entry, looked up: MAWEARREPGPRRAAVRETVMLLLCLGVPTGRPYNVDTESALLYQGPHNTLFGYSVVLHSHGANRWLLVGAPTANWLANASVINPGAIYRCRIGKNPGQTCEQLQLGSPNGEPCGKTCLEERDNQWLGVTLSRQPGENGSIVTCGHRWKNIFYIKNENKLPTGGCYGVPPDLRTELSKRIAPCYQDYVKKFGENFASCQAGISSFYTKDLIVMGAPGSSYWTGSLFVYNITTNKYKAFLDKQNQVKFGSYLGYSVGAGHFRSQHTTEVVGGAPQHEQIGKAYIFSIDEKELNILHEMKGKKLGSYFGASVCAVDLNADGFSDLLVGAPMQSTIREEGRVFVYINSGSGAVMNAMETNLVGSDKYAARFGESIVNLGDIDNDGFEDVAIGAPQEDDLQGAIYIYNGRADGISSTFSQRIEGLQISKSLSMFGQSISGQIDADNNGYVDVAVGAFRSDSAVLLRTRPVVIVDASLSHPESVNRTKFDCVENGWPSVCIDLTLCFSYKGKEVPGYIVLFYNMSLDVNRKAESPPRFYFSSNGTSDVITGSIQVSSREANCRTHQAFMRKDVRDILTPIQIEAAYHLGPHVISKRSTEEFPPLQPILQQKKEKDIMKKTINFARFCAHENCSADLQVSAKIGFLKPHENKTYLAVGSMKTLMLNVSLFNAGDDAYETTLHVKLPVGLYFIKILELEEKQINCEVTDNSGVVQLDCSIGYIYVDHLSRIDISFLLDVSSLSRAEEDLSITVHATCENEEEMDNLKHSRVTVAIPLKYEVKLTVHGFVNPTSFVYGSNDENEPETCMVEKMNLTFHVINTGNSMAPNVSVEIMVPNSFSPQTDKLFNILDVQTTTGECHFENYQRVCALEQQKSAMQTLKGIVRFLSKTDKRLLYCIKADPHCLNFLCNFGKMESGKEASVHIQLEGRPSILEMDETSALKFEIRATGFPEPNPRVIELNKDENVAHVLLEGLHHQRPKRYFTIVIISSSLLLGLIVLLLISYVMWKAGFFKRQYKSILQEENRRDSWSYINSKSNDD
UniProt P13612, 34-1032 limits assumed: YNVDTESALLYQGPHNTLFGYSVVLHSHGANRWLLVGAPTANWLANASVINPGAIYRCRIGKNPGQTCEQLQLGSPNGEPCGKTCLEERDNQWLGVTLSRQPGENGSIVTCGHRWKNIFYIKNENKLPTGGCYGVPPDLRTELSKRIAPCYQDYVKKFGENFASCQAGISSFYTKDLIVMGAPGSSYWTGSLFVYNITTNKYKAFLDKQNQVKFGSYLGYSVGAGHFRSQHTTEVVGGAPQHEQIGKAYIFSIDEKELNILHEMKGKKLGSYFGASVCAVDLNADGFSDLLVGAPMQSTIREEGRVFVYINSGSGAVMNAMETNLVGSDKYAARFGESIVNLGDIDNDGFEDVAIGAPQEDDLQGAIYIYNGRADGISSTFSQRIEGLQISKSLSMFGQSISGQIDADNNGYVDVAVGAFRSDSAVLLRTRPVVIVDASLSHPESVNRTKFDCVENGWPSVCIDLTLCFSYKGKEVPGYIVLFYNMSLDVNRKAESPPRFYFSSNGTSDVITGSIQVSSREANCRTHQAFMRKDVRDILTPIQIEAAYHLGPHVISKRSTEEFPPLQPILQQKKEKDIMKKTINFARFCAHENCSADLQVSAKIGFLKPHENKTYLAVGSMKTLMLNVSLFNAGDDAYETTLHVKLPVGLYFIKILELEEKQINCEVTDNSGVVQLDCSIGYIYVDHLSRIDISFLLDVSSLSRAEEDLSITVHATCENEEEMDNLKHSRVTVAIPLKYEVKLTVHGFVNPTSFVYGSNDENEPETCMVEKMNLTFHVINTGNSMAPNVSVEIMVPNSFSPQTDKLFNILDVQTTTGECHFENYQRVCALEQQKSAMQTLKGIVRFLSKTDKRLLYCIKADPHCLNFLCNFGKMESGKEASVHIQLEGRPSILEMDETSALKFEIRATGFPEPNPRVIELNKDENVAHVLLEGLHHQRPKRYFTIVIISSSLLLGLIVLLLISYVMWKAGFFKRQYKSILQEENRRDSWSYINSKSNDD
UniProt P26010, 20-798 limits assumed: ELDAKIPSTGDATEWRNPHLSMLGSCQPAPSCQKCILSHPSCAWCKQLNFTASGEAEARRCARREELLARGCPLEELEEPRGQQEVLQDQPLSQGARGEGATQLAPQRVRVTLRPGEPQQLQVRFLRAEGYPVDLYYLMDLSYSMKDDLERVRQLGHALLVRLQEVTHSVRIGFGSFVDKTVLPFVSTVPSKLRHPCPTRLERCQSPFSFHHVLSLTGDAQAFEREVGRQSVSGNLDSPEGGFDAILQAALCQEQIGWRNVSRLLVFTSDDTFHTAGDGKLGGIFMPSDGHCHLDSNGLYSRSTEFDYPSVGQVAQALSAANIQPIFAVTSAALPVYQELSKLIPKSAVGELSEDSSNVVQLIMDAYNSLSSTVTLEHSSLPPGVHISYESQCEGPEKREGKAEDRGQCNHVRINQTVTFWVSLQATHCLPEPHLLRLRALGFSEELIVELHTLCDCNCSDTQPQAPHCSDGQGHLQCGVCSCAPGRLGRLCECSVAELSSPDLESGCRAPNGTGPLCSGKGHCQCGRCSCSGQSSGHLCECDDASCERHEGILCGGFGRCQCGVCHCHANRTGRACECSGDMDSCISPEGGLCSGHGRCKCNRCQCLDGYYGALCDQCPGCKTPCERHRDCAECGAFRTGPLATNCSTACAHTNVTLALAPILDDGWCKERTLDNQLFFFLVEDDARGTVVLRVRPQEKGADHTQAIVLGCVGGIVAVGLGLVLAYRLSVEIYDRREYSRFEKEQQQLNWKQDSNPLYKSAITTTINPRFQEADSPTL
UniProt P05556, whole entry, looked up: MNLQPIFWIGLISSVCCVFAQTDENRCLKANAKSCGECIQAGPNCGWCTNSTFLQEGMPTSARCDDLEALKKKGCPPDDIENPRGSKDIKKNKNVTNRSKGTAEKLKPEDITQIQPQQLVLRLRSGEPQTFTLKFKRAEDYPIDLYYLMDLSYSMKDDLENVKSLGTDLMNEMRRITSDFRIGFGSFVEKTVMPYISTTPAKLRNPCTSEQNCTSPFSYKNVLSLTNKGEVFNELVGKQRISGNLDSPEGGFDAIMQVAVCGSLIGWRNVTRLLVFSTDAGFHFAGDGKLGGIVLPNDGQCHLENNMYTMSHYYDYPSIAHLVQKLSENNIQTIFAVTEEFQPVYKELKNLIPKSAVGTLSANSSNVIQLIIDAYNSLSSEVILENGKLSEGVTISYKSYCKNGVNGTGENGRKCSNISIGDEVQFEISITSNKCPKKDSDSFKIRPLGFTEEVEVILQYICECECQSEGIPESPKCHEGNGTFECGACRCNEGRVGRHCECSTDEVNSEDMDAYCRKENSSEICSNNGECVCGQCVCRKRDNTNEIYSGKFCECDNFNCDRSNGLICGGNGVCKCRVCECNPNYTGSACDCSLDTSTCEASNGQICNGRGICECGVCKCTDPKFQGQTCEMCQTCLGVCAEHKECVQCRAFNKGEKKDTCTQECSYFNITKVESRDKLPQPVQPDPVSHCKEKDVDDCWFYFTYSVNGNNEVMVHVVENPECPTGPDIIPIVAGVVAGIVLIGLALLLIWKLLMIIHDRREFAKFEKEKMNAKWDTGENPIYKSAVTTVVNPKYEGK

Row | Compound | IC50 (integrin α4β7; [1]) [µM] | IC50 (integrin α4β1) [µM] | α4β1/α4β7 (integrin α4β1) | IC50 (integrin α4β7; [2]) [µM]
1 | COc1cc(C)c(-c2cc(C(CC(=O)O)NC(=O)C(CC(C)C)n3cc(CCN(C)C)c(C(F)(F)F)cc3=O)cc3c2CCC3)c(C)c1 (stereo not drawn) | < 0.0005 | > 0.1 | 1420 | –
2 | Cc1cc(F)cc(C)c1-c1cc(C(CC(=O)O)NC(=O)C(CC(C)C)n2cc(C3CCN(CC4CC4(F)F)CC3)c(C(F)(F)F)cc2=O)cc2c1CCC2 (stereo not drawn) | – | > 0.3 | 106 | < 0.01
3 | Cc1cc(F)cc(C)c1-c1cc(C(CC(=O)O)NC(=O)C(CC(C)C)n2cc(CC3CN(C(C)C)C3)c(C(F)(F)F)cc2=O)cc2c1CCC2 (stereo not drawn) | < 0.0005 | > 0.1 | 454 | –
4 | CCN(CC)CCc1cn(C(CC(C)C)C(=O)NC(CC(=O)O)c2cc3c(c(-c4c(C)cc(F)cc4C)c2)CCC3)c(=O)cc1C(F)(F)F (stereo not drawn) | < 0.0005 | > 0.03 | 269 | –

Next, values leading:

Row | IC50 (integrin α4β7; [1]) [µM] | IC50 (integrin α4β1) [µM] | α4β1/α4β7 (integrin α4β1) | IC50 (integrin α4β7; [2]) [µM] | Compound
5 | < 0.001 | > 0.1 | 165 | – | CC#Cc1cc(-c2c(C)cccc2C)c(F)c(C(CC(=O)O)NC(=O)C(CC(C)C)n2cc(CCN3CC4CC3CO4)c(C(F)(F)F)cc2=O)c1F (single isomer, unassigned) [Trifluoroacetate salt of compound 17-2]
6 | – | > 0.5 | 648 | < 0.01 | Cc1cccc(C)c1-c1cc(C(CC(=O)O)NC(=O)C(CC(C)C)n2cc(CCN(C)C)c(C(F)(F)F)cc2=O)cc2c1CCC2 (stereo not drawn)
7 | < 0.0005 | > 0.1 | 269 | – | CC#Cc1cc(-c2c(C)cc(OC)cc2C)c(F)c(C(CC(=O)O)NC(=O)C(CC(C)C)n2cc(CCN(C)C)c(C(F)(F)F)cc2=O)c1F (stereo not drawn)
8 | < 0.001 | > 0.2 | 308 | – | CC#Cc1cc(-c2c(C)cccc2C)c(F)c(C(CC(=O)O)NC(=O)C(CC(C)C)n2cc(CCN3CC4CC3CO4)c(C(F)(F)F)cc2=O)c1F (single isomer, unassigned) [Trifluoroacetate salt of compound 16-2]

From patent EP4585587A1, “PROPIONIC ACID DERIVATIVE AND USE THEREOF IN MEDICINE” (priority 2022, dated 2024)
